Chains of the proteins cited; added tags and fusions are not shown. Residues count along the entry.
UniProt O75417, 1780-2590: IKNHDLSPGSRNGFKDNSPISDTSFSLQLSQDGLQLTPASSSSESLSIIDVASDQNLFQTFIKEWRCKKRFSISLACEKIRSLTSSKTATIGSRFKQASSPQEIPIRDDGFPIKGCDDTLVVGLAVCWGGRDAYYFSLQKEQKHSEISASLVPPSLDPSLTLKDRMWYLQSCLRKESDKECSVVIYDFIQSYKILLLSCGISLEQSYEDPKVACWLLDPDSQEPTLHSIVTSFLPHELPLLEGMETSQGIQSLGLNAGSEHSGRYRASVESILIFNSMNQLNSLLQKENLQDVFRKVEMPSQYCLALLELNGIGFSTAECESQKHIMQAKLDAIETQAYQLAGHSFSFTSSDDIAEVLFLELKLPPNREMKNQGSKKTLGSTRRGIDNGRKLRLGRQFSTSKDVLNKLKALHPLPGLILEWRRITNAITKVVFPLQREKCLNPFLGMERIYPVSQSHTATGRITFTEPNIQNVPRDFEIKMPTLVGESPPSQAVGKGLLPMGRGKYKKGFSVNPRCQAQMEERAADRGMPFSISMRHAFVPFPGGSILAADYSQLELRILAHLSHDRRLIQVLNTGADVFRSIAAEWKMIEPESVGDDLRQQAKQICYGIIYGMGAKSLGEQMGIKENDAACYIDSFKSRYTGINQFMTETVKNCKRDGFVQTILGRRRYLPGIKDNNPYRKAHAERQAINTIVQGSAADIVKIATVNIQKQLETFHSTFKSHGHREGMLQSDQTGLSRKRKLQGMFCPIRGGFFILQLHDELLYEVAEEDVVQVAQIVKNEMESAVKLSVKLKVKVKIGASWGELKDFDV

According to patent US20250195530A1, “POLQ INHIBITORS” (ASTRAZENECA AB, priority 2022, published 2025):

Molecular target: isolated polymerase domain (I1780-V2590) of DNA polymerase theta (Polθ) (Homo sapiens (Human), UniProt O75417)

IC50 | Compound
7.94 nM | CC1(Oc2ncnc3c2nc(-c2ccc(O[C@H]4CNC[C@H]4F)cc2Cl)n3Cc2ccccc2)CC1 [Example D31, 9-benzyl-8-(2-chloro-4-(((3S,4R)-4-fluoropyrrolidin-3-yl)oxy)phenyl)-6-(1-methylcyclopropoxy)-9H-purine]
3.98 nM | Cc1cc(OCCCN)ncc1-c1nc2c(OC3(C)CC3)ncnc2n1Cc1ccccc1 [Example G9, 3-((5-(9-benzyl-6-(1-methylcyclopropoxy)-9H-purin-8-yl)-4-methylpyridin-2-yl)oxy)propan-1-amine]
10 nM | CC1(Oc2ncnc3c2nc(-c2ccc(OCC(=O)O)cc2Cl)n3Cc2ccccc2)CC1 [Example D24, 2-(4-(9-benzyl-6-(1-methylcyclopropoxy)-9H-purin-8-yl)-3-chlorophenoxy)acetic acid]
3.16 nM | CC1(Oc2ncnc3c2nc(-c2ccc(OCCN4CC[C@@H](O)C4)cc2Cl)n3Cc2cc(Cl)ccn2)CC1 [Example R2, (R)-1-(2-(3-chloro-4-(9-((4-chloropyridin-2-yl)methyl)-6-(1-methylcyclopropoxy)-9H-purin-8-yl)phenoxy)ethyl)pyrrolidin-3-ol]
3.16 nM | COc1cc(OCCN2CCN(C)CC2)ccc1-c1nc2c(OC3(C)CC3)ncnc2n1Cc1ccccc1 [Example H3, 9-benzyl-8-(2-methoxy-4-(2-(4-methylpiperazin-1-yl)ethoxy)phenyl)-6-(1-methylcyclopropoxy)-9H-purine]
3.16 nM | CC1(Oc2ncnc3c2nc(-c2cccc(O[C@H]4C[C@H](C(=O)O)C4)c2Cl)n3Cc2cccc(Cl)c2)CC1 [Example T256, (1r,3r)-3-(2-chloro-3-(9-(3-chlorobenzyl)-6-(1-methylcyclopropoxy)-9H-purin-8-yl)phenoxy)cyclobutane-1-carboxylic acid]
2 nM | CC(=O)N1CCN(CCCOc2cc(C)c(-c3nc4c(OC5(C)CC5)ncnc4n3Cc3ccccc3)cn2)CC1 [Example G3, 1-(4-(3-((5-(9-benzyl-6-(1-methylcyclopropoxy)-9H-purin-8-yl)-4-methylpyridin-2-yl)oxy)propyl)piperazin-1-yl)ethan-1-one]
5.01 nM | CNC(=O)c1ccc(-c2nc3c(OC4(C)CC4)ncnc3n2Cc2ccccc2)c(Cl)c1 [Example N2, 4-(9-benzyl-6-(1-methylcyclopropoxy)-9H-purin-8-yl)-3-chloro-N-methylbenzamide]
6.31 nM | CC1(Oc2ncnc3c2nc(-c2ccc(OCCN4CCC[C@H]4C(=O)O)cc2Cl)n3Cc2ccccc2)CC1 [Example H12, (2-(4-(9-benzyl-6-(1-methylcyclopropoxy)-9H-purin-8-yl)-3-chlorophenoxy)ethyl)-L-proline]
3.98 nM | Cc1cc(O[C@H]2CCNC2)ncc1-c1nc2c(OC3(C)CC3)ncnc2n1Cc1ccccc1 [Example G11, (S)-9-benzyl-8-(4-methyl-6-(pyrrolidin-3-yloxy)pyridin-3-yl)-6-(1-methylcyclopropoxy)-9H-purine]
7.94 nM | CC(COc1cccc(-c2nc3c(OC4(C)CC4)ncnc3n2Cc2cc(Cl)ccc2F)c1Cl)CC(=O)O (single isomer, unassigned) [Example U34, 4-(2-chloro-3-(9-(5-chloro-2-fluorobenzyl)-6-(1-methylcyclopropoxy)-9H-purin-8-yl)phenoxy)-3-methylbutanoic acid]
10 nM | CC(=O)N1CC(Oc2ccc(-c3nc4c(OC5(C)CC5)ncnc4n3Cc3cc(C)ccn3)c(Cl)c2)C1 [Example 40, 1-(3-(3-Chloro-4-(6-(1-methylcyclopropoxy)-9-((4-methylpyridin-2-yl)methyl)-9H-purin-8-yl)phenoxy)azetidin-1-yl)ethan-1-one]
7.94 nM | Cc1ccnc(Cn2c(-c3ccc(O[C@H]4CCC(=O)NC4)cc3Cl)nc3c(OC4(C)CC4)ncnc32)c1 [Example 41, (S)-5-(3-Chloro-4-(6-(1-methylcyclopropoxy)-9-((4-methylpyridin-2-yl)methyl)-9H-purin-8-yl)phenoxy)piperidin-2-one]
3.16 nM | Cc1cc(O[C@H]2CCCNC2)ncc1-c1nc2c(OC3(C)CC3)ncnc2n1Cc1ccccc1 [Example G13, (S)-9-benzyl-8-(4-methyl-6-(piperidin-3-yloxy)pyridin-3-yl)-6-(1-methylcyclopropoxy)-9H-purine]
6.31 nM | CC1(Oc2ncnc3c2nc(-c2ccc(O[C@H]4CC[C@@H](C(=O)O)CC4)cc2Cl)n3Cc2ccccc2C#N)CC1 [Example U16, (1s,4s)-4-(3-chloro-4-(9-(2-cyanobenzyl)-6-(1-methylcyclopropoxy)-9H-purin-8-yl)phenoxy)cyclohexane-1-carboxylic acid]
3.98 nM | Cc1ccnc(Cn2c(-c3ccc(O[C@H]4C[C@H](O)C4)cc3Cl)nc3c(OC4(C)CC4)ncnc32)c1 [Example T199, (1r,3r)-3-(3-chloro-4-(6-(1-methylcyclopropoxy)-9-((4-methylpyridin-2-yl)methyl)-9H-purin-8-yl)phenoxy)cyclobutan-1-ol]
5.01 nM | COc1ccc(Cl)cc1Cn1c(-c2cccc(O[C@H]3CC[C@H](C(=O)O)CC3)c2Cl)nc2c(OC3(C)CC3)ncnc21 [Example U38, (1r,4r)-4-(2-chloro-3-(9-(5-chloro-2-methoxybenzyl)-6-(1-methylcyclopropoxy)-9H-purin-8-yl)phenoxy)cyclohexane-1-carboxylic acid]

IC50 | Compound
6.31 nM | Cc1cc(OCCN2CCNCC2)ncc1-c1nc2c(OC3(C)CC3)ncnc2n1Cc1ccccc1Cl [Example J5, 9-(2-chlorobenzyl)-8-(4-methyl-6-(2-(piperazin-1-yl)ethoxy)pyridin-3-yl)-6-(1-methylcyclopropoxy)-9H-purine]
2 nM | CC(C)Oc1ccc2c(c1)nc(-c1ccc(OCCCN)cc1Cl)n2Cc1ccccc1 [Example 3, 3-(4-(1-Benzyl-5-isopropoxy-1H-benzo[d]imidazol-2-yl)-3-chlorophenoxy)propan-1-amine]
2.51 nM | Cc1cc(OCCN2CCN(C)CC2)ccc1-c1nc2c(OC3(C)CC3)ncnc2n1Cc1ccccc1 [Example C1, 9-benzyl-8-(2-methyl-4-(2-(4-methylpiperazin-1-yl)ethoxy)phenyl)-6-(1-methylcyclopropoxy)-9H-purine]
7.94 nM | COc1ccc(Cl)cc1Cn1c(-c2cccc(O[C@H]3CC[C@@H](C(=O)O)CC3)c2Cl)nc2c(OC3(C)CC3)ncnc21 [Example U50, (1s,4s)-4-(2-chloro-3-(9-(5-chloro-2-methoxybenzyl)-6-(1-methylcyclopropoxy)-9H-purin-8-yl)phenoxy)cyclohexane-1-carboxylic acid]
3.16 nM | Cc1cnc(Cn2c(-c3ccc(OCCN4CCNCC4)cc3Cl)nc3c(OC4(C)CC4)ncnc32)s1 [Example L3, 2-((8-(2-chloro-4-(2-(piperazin-1-yl)ethoxy)phenyl)-6-(1-methylcyclopropoxy)-9H-purin-9-yl)methyl)-5-methylthiazole]
6.31 nM | COc1ccc(Cl)cc1Cn1c(-c2cccc(O[C@H]3C[C@H](C(=O)O)C3)c2Cl)nc2c(OC3(C)CC3)ncnc21 [Example U51, (1r,3r)-3-(2-chloro-3-(9-(5-chloro-2-methoxybenzyl)-6-(1-methylcyclopropoxy)-9H-purin-8-yl)phenoxy)cyclobutane-1-carboxylic acid]
6.31 nM | CC1(Oc2ncnc3c2nc(-c2ccc(OC[C@H]4CCCN4)cc2Cl)n3Cc2ccccc2)CC1 [Example D25, (R)-9-benzyl-8-(2-chloro-4-(pyrrolidin-2-ylmethoxy)phenyl)-6-(1-methylcyclopropoxy)-9H-purine]
6.31 nM | CC1(Oc2ncnc3c2nc(-c2ccc(OCCN4CCNCC4)cc2Cl)n3Cc2cc(Cl)ccn2)CC1 [Example 10, 8-(2-Chloro-4-(2-(piperazin-1-yl)ethoxy)phenyl)-9-((4-chloropyridin-2-yl)methyl)-6-(1-methylcyclopropoxy)-9H-purine]
2 nM | CC(C)Oc1ccc2c(c1)nc(-c1ccc(OCCN3CCN(C)CC3)cc1Cl)n2Cc1cccc(Cl)c1 [Example 2, 2-(2-Chloro-4-(2-(4-methylpiperazin-1-yl)ethoxy)phenyl)-1-(3-chlorobenzyl)-5-isopropoxy-1H-benzo[d]imidazole]
3.16 nM | CC1(Oc2ncnc3c2nc(-c2ccc(OCCCN)cc2Cl)n3Cc2ccccc2)CC1 [Example D6, 3-(4-(9-benzyl-6-(1-methylcyclopropoxy)-9H-purin-8-yl)-3-chlorophenoxy)propan-1-amine]
50.1 nM | CN1CCN(CCOc2ccc(-c3nc4c(OC5(C)CC5)ncnc4n3Cc3ccncc3)c(Cl)c2)CC1 [Example K1, 8-(2-chloro-4-(2-(4-methylpiperazin-1-yl)ethoxy)phenyl)-6-(1-methylcyclopropoxy)-9-(pyridin-4-ylmethyl)-9H-purine]
2 nM | C[C@@H](Cn1c(-c2ccc(OCCN3CCNCC3)cc2Cl)nc2c(OC3(C)CC3)ncnc21)c1ccccc1 [Example J10, (R)-8-(2-chloro-4-(2-(piperazin-1-yl)ethoxy)phenyl)-6-(1-methylcyclopropoxy)-9-(2-phenylpropyl)-9H-purine]
20 nM | CC1(Oc2ncnc3c2nc(-c2ccc(OCCN4CCNCC4)cc2Cl)n3Cc2ncccc2Cl)CC1 [Example K5, 8-(2-chloro-4-(2-(piperazin-1-yl)ethoxy)phenyl)-9-((3-chloropyridin-2-yl)methyl)-6-(1-methylcyclopropoxy)-9H-purine]
50.1 nM | Cc1ccnc(Cn2c(-c3ccc(C(=O)N(C)[C@H]4C[C@@H](O)C4)cc3Cl)nc3c(OC4(C)CC4)ncnc32)c1 [Example T468, 3-chloro-N-((1s,3s)-3-hydroxycyclobutyl)-N-methyl-4-(6-(1-methylcyclopropoxy)-9-((4-methylpyridin-2-yl)methyl)-9H-purin-8-yl)benzamide]
3.16 nM | CC1(Oc2ncnc3c2nc(-c2ccc(OCCN4CCNCC4)cc2Cl)n3Cc2cccc(Cl)c2)CC1 [Example J13, 8-(2-chloro-4-(2-(piperazin-1-yl)ethoxy)phenyl)-9-(3-chlorobenzyl)-6-(1-methylcyclopropoxy)-9H-purine]
2 nM | COc1cccc(-c2nc3c(OC4(C)CC4)ncnc3n2Cc2ccccc2)c1Cl [Example C6, 9-benzyl-8-(2-chloro-3-methoxyphenyl)-6-(1-methylcyclopropoxy)-9H-purine]
